The list shows a part of the results, in another mix than the full data. Activity calls are given as the source filed them.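 How the source made its calls: active means fluorescence ratio B-score, a plate-corrected score, at least three library SD, with initial intensity B-score within 5 SD; inactive means the rest.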

Chains of the proteins cited; added tags and fusions are not shown.
UniProt P51787, whole entry: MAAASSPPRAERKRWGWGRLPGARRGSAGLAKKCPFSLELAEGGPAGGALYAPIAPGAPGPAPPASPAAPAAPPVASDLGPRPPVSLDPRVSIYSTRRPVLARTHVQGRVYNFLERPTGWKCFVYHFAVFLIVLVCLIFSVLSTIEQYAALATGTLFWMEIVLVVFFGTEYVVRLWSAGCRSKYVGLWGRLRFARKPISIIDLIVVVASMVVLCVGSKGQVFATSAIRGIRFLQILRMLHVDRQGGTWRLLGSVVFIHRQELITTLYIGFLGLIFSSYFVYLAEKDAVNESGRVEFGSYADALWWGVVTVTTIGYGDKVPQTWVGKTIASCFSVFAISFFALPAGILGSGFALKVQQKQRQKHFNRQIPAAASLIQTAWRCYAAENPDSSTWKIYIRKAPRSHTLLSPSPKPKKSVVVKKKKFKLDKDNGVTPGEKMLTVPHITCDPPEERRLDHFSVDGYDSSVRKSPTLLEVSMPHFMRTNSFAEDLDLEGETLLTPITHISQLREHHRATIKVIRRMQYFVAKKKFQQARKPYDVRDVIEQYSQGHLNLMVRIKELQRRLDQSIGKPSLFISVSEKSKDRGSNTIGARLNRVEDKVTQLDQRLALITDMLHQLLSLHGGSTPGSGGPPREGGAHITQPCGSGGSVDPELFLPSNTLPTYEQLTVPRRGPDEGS

The source of these data is PubChem BioAssay AID2648 (Johns Hopkins Ion Channel Center, 2010).

This experiment has as its target Potassium voltage-gated channel subfamily KQT member 1 (Homo sapiens) (UniProt P51787). The experiment can be described thus: human KCNQ1 current enhancers – cell-based, thallium flux, high-throughput, primary screen (AID 2648). Conditions: CHO-K1 KCNQ1, thallium flux FluxOR fluorescence; at 10 µM.
With `COc1cc(C(=O)NCC2(N(C)C)CCCCC2)ccc1OC(F)F`, the outcome was inactive.
As for `CCOC(=O)N1CCC(Nc2cccc(C)c2)CC1`, the outcome was inactive.
Then `Cc1ccc(OCC(C)C)c(CN(CCCl)CCCl)c1`, with “inactive”; and `CCOc1ccc(C)cc1CN(CCCl)CCCl`, with “inactive”; and `O=C(NCC1(N2CCCCC2)CCCCC1)c1ccc(F)cc1`, with “inactive”.
Then `COc1ccc(NC2CCN(CCc3ccccc3)CC2)c(OC)c1`, with “inactive”; and `CCOC(=O)N1CCC(Nc2ccc(F)cc2)CC1`, with “inactive”; and `O=C(NCC1(N2CCOCC2)CCCCC1)c1cc2ccccc2o1`, with “inactive”.
Then `O=C(NCC1(N2CCCCC2)CCCCC1)c1ccc(Cl)nc1`, with “inactive”; and `Cc1cc(C)cc(N(C(=O)c2ccccc2)C2CCN(C(=O)OC(C)(C)C)CC2)c1`, with “inactive”; and `CCOC(=O)N1CCC(Nc2ccc(OC)cc2)CC1`, with “inactive”.
As for `O=C(OC1CN2CCC1CC2)C1c2ccccc2Oc2ccccc21` (centres undefined), the outcome was inactive.
With `N#CC1(Nc2ccccc2)CCN(Cc2ccccc2)CC1`, the outcome was inactive.
For `O=C(NCC1(N2CCCCC2)CCCCC1)c1ccc(=O)[nH]c1`, the result was inactive.
Then `O=C(NCC1(N2CCCCC2)CCCCC1)c1cccs1`, with “inactive”; and `COc1ccc(C(=O)NCC2(N3CCCCC3)CCCCC2)cc1`, with “inactive”.
The result for `CC(C)(C)OC(=O)N1CCC(N(C(=O)c2ccccc2)c2ccc(F)cc2)CC1` reads “inactive”.
Turning to `COc1ccc(C(=O)NCC2(N3CCCCC3)CCCCC2)c(OC)c1OC`, the result was inactive.
The result for `CSc1ccccc1C(=O)NCC1(N2CCCCC2)CCCCC1` reads “inactive”; that for `CN1CCC(Nc2cccc(F)c2)CC1`, “inactive”.
With `CCCOc1ccc(C(=O)NCC2(N(C)C)CCCCC2)cc1OC`, the outcome was inactive.
Then `COc1ccc(CN(CCCl)CCCl)cc1Cl`, with “inactive”; and `CN(C)c1cccc(C(=O)NCC2(N3CCCCC3)CCCCC2)c1`, with “inactive”; and `CC(C)c1ccc(NC2CCN(C(=O)OC(C)(C)C)CC2)cc1`, with “inactive”.
In the case of `COc1cc(OC)c(C(=O)NCC2(N(C)C)CCCCC2)cc1OC`, the result was inactive.
Take `O=C(NCC1(N2CCCCC2)CCCCC1)c1cccc(C(F)(F)F)c1`: the result was inactive.
As for `CN1CCN(CCOC(=O)C(O)(c2ccccc2)c2ccccc2)CC1`, the result was inactive.
The result for `COc1ccc(NC2CCN(C(=O)OC(C)(C)C)CC2)cc1` reads “inactive”; that for `COc1cc(C(=O)NCC2(N3CCCCC3)CCCCC2)ccc1OC(F)F`, “inactive”; that for `O=C(NCC1(N2CCOCC2)CCCCC1)c1cc(=O)[nH]c2ccccc12`, “inactive”.
For `O=C(NCC1(N2CCCCC2)CCCCC1)c1ccc(OC(F)F)cc1`, the outcome was inactive.
Consider `O=C(NCC1(N2CCCCC2)CCCCC1)c1cccc([N+](=O)[O-])c1`, for which the outcome was inactive.
Regarding `CCN1CCC(Nc2ccc(Cl)cc2)CC1`, the result was inactive.
Then `N#CC1(Nc2ccccc2)CCN(CCc2ccccc2)CC1`, with “inactive”.
The result for `c1ccc(CN2CCC(Nc3ccccc3)CC2)cc1` reads “inactive”; that for `CCCN1CCC(Nc2cc(OC)cc(OC)c2)CC1`, “inactive”.
For `CN(C)C1(CNC(=O)c2cccc(C#N)c2)CCCCC1`, the result was inactive.
Then `CC(C)(C)OC(=O)N1CCC(N(C(=O)c2ccccc2)c2ccc(Cl)cc2)CC1`, with “inactive”; and `N#Cc1ccc(C(=O)NCC2(N3CCCCC3)CCCCC2)cc1`, with “inactive”.
The result for `N/C(=N\O)c1c(N)no[n+]1[O-]` reads “inactive”.
With `CCOC(=O)N1CCC(Nc2ccc(C)cc2)CC1`, the outcome was inactive.
As to `O=C(OC1CN2CCC1CC2)C1c2ccccc2C=Cc2ccccc21` (centres undefined), the result was inactive.
Take `CCc1cc(C(=O)NCC2(N3CCCCC3)CCCCC2)sc1C`: the outcome was inactive.
The result for `COc1ccc(C(=O)NCC2(N3CCOCC3)CCCCC2)cc1OC` reads “inactive”; that for `CCC(CO)(C(=O)OC1CN2CCC1CC2)c1ccccc1` (centres undefined), “inactive”; that for `COc1cc(OC)cc(C(=O)NCC2(N3CCOCC3)CCCCC2)c1`, “inactive”.
On to `COc1cccc(C(=O)N(c2cc(C)cc(C)c2)C2CCN(C(=O)OC(C)(C)C)CC2)c1`, for which the result was inactive.
Then `CCCOc1ccc(C)cc1CN(CCCl)CCCl`, with “inactive”.
Turning to `CN1CCC(Nc2ccc(Cl)cc2)CC1`, the result was inactive.
Then `CCOc1ncccc1C(=O)NCC1(N2CCOCC2)CCCCC1`, with “inactive”; and `CN1CCC(Nc2ccc(F)c(Cl)c2)CC1`, with “inactive”; and `CCCOc1ccc(C(=O)NCC2(N(C)C)CCCCC2)cc1`, with “inactive”.
The result for `CC(C)(C)OC(=O)N1CCC(Nc2ccccc2)CC1` reads “inactive”; that for `O=C(O)C1(Nc2ccccc2)CCN(Cc2ccccc2)CC1`, “inactive”.
Regarding `CCN1CCC(Nc2cccc(F)c2)CC1`, the outcome was inactive.
Turning to `CN(C)c1ccc(C(=O)NCC2(N3CCCCC3)CCCCC2)cc1`, the result was inactive.
Then `COc1cc(OC)cc(C(=O)NCC2(N3CCCCC3)CCCCC2)c1`, with “inactive”.
Then `Cc1ccc(C(=O)NCC2(N3CCCCC3)CCCCC2)o1`, with “inactive”; and `Fc1ccccc1NC1CCN(Cc2ccccc2)CC1`, with “inactive”.
